# How the values were obtained:
# Amino acid sequences for entries named in this document (tags omitted). Residues count along the entry.
# UniProt Q99538, 18-323 limits assumed: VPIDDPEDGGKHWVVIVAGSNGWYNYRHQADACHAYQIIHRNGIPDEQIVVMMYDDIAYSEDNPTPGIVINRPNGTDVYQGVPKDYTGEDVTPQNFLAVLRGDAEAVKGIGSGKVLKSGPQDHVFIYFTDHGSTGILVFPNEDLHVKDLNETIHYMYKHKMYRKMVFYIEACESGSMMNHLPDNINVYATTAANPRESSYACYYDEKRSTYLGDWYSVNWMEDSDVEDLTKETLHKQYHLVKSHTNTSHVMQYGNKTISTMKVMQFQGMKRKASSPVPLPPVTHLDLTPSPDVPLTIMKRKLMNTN
# UniProt P08253, 110-660 limits assumed: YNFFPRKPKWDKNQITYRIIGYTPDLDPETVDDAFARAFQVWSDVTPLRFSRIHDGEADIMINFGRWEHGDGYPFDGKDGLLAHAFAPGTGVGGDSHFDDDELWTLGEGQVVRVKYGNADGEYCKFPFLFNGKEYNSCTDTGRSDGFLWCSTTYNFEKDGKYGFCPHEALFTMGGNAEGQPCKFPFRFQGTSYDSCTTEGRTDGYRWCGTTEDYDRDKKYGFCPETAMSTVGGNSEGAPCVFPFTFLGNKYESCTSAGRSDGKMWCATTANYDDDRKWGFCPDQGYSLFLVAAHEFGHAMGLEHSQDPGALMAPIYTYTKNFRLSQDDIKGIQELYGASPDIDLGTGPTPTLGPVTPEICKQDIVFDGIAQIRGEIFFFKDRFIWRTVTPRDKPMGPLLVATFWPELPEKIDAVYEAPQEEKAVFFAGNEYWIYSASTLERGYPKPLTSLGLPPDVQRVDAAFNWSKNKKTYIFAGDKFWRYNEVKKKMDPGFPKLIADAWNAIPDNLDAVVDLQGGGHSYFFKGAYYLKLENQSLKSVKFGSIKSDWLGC
# UniProt P14780, 107-707 limits assumed: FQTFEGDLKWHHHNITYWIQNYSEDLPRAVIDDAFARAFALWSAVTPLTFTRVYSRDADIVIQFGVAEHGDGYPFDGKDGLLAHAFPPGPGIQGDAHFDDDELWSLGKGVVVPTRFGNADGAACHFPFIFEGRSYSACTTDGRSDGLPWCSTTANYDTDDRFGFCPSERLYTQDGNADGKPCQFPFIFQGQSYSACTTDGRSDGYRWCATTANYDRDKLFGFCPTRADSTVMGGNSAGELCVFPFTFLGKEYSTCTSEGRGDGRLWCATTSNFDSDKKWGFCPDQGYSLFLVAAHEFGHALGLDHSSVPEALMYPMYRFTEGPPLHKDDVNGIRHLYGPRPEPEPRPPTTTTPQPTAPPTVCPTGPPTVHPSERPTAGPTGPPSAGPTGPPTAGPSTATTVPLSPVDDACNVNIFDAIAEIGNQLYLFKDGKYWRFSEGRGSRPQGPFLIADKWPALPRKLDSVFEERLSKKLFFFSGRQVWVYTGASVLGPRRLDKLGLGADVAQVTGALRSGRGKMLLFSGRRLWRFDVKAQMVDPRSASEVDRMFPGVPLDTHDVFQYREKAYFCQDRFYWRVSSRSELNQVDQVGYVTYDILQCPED
# legumain = legumain (Homo sapiens, UniProt Q99538); assay: IQF substrate hydrolysis kinetics with legumain; settings: substrate 1.46-25 μM, citric acid/Na2HPO4 buffer pH 5.8, 37 °C, mean of at least three, SD <10%
# Procedure: (§1) All kinetic measurements were performed using a Spectra Max Gemini XPS spectrofluorimeter (Molecular Devices) at 37 °C. For the substrates with the new donor acceptor pair, ACC/DNP, the excitation wavelength was 355 nm, and the emission wavelength was 460 nm; for MCA/DNP, the corresponding values were 325 and 420 nm, respectively. The substrate concentrations were varied, and the enzyme concentration was kept constant in each assay; the total reaction volume was 100 μl. Measurements were conducted for 30 min, and only the linear part of the progress curve was used to determine the reaction velocity. The measurements were repeated, and the data presented are the average of at least three measurements. The catalytic parameters kcat and KM were established using GraphPad Prism software to directly fit the initial velocities and initial substrate concentrations to the Michaelis-Menten equation using non-linear regression analysis.
# Pro-legumain was auto-activated in buffer containing 100 mM sodium acetate, 1 mM EDTA, and 10 mM DTT at pH 4.5 for 2.5 h at 37 °C[63]. Assays involving legumain were performed in buffer containing 40 mM citric acid, 1 mM EDTA, 120 mM Na2HPO4, and 10 mM DTT at pH 5.8. The enzyme was incubated with the assay buffer for 20 min at 37 °C prior to the substrate addition and the measurement. For legumain, the concentration of substrates containing ACC ranged from 1.46 to 25 μM, and the enzyme concentration was 7.3 nM. The concentration of substrates containing MCA ranged from 1.46 to 25 μM, and the enzyme concentration was 24.5 nM.
# MMP2 = MMP2 (Homo sapiens, UniProt P08253); assay: IQF substrate hydrolysis kinetics with MMP2; settings: 0.1 M Tris-HCl, 0.1 M NaCl, 10 mM CaCl2 pH 7.5, 37 °C, mean of at least three, SD <10%
# Procedure: as §1
# (§2) The MMP2 proenzyme was activated with 2 mM 4-aminophenylmercuric acetate (APMA) in 50 mM Tris buffer containing 150 mM NaCl and 5 mM CaCl2 for 1 h at 25 °C[60]. The MMP9 proenzyme was activated autocatalytically for 2 h in assay buffer at 25 °C[58]. Assays involving MMP2 and MMP9 were performed in a buffer containing 0.1 M Tris-HCl, 0.1 M NaCl, and 10 mM CaCl2 at pH 7.5[58][60]. Enzymes were incubated with assay buffer for 40 min at 37 °C prior to the substrate addition and the measurement. For MMP2, the concentration of substrates containing ACC ranged from 3.5 to 60 μM, and the enzyme concentration was 1.25 nM. The concentration of substrates containing MCA was ranged from 5.85 to 100 μM, and the enzyme concentration was 3.8 nM. For MMP9, the concentration of substrates containing ACC ranged from 1.8 to 30 μM, and the enzyme concentration was 2.4 nM. The concentration of substrates containing MCA ranged from 3.0 to 50 μM, and the enzyme concentration was 7.2 nM.
# MMP9 = MMP9 (Homo sapiens, UniProt P14780); assay: IQF substrate hydrolysis kinetics with MMP9; settings: 0.1 M Tris-HCl, 0.1 M NaCl, 10 mM CaCl2 pH 7.5, 37 °C, mean of at least three, SD <10%
# Procedure: as §1, §2
# [1] = ACC/Lys(DNP) substrate, legumain 7.3 nM, ex 355/em 460 nm
# [2] = MCA/Lys(DNP) substrate, legumain 24.5 nM, ex 325/em 420 nm
# [3] = MCA/Lys(DNP) substrate, MMP2 3.8 nM, substrate 5.85-100 μM, ex 325/em 420 nm
# [4] = MCA/Lys(DNP) substrate, MMP9 7.2 nM, substrate 3.0-50 μM, ex 325/em 420 nm
# [5] = ACC/Lys(DNP) substrate, MMP2 1.25 nM, substrate 3.5-60 μM, ex 355/em 460 nm
# [6] = ACC/Lys(DNP) substrate, MMP9 2.4 nM, substrate 1.8-30 μM, ex 355/em 460 nm
compound,measurement,setting,value
CC(C)[C@H](NC(=O)[C@H](CCCCN)NC(=O)[C@H](CC(N)=O)NC(=O)[C@@H](NC(=O)[C@@H]1CCCN1C(=O)CNC(=O)Cc1cc(=O)oc2cc(N)ccc12)[C@@H](C)O)C(=O)N[C@@H](CCCCNc1ccc([N+](=O)[O-])cc1[N+](=O)[O-])C(=O)N[C@@H](CCCNC(=N)N)C(N)=O,Km,legumain; [1],9.13 µM
same,kcat,legumain; [1],1.35 s⁻¹
same,kcat/KM,legumain; [1],149 000 M^−1s^−1
COc1ccc2c(CC(=O)NCC(=O)N3CCC[C@H]3C(=O)N[C@H](C(=O)N[C@@H](CC(N)=O)C(=O)N[C@@H](CCCCN)C(=O)N[C@H](C(=O)N[C@@H](CCCCNc3ccc([N+](=O)[O-])cc3[N+](=O)[O-])C(=O)N[C@@H](CCCNC(=N)N)C(N)=O)C(C)C)[C@@H](C)O)cc(=O)oc2c1,Km,legumain; [2],8.11 µM
same,kcat,legumain; [2],1.09 s⁻¹
same,kcat/KM,legumain; [2],139 000 M^−1s^−1
COc1ccc2c(CC(=O)NCC(=O)N3CCC[C@H]3C(=O)N[C@@H](CC(C)C)C(=O)NCC(=O)N[C@@H](CC(C)C)C(=O)N[C@@H](CCCCNc3ccc([N+](=O)[O-])cc3[N+](=O)[O-])C(=O)N[C@@H](C)C(=O)N[C@@H](CCCNC(=N)N)C(N)=O)cc(=O)oc2c1,Km,MMP2; [3],35.1 µM
same,kcat,MMP2; [3],6.24 s⁻¹
same,kcat/KM,MMP2; [3],179 900 M^−1s^−1
same,Km,MMP9; [4],11.7 µM
same,kcat,MMP9; [4],0.958 s⁻¹
same,kcat/KM,MMP9; [4],82 400 M^−1s^−1
CC(C)C[C@H](NC(=O)CNC(=O)[C@H](CC(C)C)NC(=O)[C@@H]1CCCN1C(=O)CNC(=O)Cc1cc(=O)oc2cc(N)ccc12)C(=O)N[C@@H](CCCCNc1ccc([N+](=O)[O-])cc1[N+](=O)[O-])C(=O)N[C@@H](C)C(=O)N[C@@H](CCCNC(=N)N)C(N)=O,Km,MMP2; [5],15.4 µM
same,kcat,MMP2; [5],4.26 s⁻¹
same,kcat/KM,MMP2; [5],278 800 M^−1s^−1
same,Km,MMP9; [6],7.81 µM
same,kcat,MMP9; [6],0.69 s⁻¹
same,kcat/KM,MMP9; [6],89 200 M^−1s^−1
